Experimental data reported in patent US20170159101A1, “DRUG-RESISTANT P97 ATPASE MUTATIONS” (Cleave Biosciences, Inc., priority 2014, published 2017).

Chains of the proteins cited; added tags and fusions are not shown.
UniProt P55072, whole entry Q473P: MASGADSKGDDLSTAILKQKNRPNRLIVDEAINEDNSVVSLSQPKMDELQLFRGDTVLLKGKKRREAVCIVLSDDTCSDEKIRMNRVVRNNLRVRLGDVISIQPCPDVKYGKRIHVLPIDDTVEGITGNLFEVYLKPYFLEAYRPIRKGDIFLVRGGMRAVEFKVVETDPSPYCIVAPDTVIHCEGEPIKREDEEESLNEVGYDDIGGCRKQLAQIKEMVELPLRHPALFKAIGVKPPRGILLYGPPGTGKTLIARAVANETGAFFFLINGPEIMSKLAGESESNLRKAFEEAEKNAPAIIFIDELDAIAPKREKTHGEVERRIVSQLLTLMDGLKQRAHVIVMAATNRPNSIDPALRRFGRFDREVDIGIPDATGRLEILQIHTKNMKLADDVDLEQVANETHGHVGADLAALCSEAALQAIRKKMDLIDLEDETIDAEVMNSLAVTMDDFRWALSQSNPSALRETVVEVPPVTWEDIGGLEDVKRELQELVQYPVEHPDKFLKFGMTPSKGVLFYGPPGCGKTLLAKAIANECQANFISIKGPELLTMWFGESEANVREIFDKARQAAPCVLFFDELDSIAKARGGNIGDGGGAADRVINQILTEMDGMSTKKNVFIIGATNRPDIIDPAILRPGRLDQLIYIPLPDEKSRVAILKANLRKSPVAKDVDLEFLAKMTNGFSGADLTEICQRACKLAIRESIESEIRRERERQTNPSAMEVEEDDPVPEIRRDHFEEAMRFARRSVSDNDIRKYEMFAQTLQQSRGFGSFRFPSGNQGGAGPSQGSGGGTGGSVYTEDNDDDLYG
UniProt P55072, whole entry A659T: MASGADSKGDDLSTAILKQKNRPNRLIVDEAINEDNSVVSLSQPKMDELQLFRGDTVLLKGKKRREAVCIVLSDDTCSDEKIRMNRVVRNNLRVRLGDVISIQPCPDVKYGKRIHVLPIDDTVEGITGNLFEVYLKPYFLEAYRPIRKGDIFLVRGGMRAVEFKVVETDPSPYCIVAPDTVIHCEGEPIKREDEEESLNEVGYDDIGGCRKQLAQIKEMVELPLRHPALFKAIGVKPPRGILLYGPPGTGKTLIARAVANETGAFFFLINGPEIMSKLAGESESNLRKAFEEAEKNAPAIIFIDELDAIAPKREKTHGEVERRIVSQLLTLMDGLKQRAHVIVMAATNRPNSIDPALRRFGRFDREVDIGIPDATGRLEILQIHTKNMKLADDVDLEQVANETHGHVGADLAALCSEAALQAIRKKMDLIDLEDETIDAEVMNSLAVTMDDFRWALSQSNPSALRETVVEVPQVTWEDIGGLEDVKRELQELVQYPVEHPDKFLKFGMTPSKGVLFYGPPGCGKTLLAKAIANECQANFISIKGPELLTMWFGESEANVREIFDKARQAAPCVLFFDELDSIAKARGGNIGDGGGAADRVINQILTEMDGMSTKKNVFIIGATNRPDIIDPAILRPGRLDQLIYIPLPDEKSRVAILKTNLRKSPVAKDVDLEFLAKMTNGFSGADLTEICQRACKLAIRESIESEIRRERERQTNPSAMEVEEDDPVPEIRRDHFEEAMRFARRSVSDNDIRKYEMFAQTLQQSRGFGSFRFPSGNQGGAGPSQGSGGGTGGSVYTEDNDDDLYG
UniProt P55072, whole entry G481A: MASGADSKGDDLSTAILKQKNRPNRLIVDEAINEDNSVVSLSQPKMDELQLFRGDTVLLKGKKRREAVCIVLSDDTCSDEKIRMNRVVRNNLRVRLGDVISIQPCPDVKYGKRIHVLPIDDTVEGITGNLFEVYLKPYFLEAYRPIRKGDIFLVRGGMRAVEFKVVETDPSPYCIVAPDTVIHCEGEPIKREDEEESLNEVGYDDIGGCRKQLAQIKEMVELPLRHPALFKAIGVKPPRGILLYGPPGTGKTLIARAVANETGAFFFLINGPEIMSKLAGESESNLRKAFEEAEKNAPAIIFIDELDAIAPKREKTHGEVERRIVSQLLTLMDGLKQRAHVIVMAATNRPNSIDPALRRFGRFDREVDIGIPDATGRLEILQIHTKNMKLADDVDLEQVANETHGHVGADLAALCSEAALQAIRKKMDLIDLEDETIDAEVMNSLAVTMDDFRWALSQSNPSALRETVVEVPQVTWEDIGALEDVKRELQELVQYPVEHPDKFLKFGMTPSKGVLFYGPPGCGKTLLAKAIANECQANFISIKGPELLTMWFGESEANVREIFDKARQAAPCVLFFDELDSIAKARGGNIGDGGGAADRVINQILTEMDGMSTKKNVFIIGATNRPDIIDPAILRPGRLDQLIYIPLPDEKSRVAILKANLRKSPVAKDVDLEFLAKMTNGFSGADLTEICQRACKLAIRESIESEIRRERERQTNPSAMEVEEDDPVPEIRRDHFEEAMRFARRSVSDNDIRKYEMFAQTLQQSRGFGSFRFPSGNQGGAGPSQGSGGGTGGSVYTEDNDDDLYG
UniProt P55072, whole entry D649A: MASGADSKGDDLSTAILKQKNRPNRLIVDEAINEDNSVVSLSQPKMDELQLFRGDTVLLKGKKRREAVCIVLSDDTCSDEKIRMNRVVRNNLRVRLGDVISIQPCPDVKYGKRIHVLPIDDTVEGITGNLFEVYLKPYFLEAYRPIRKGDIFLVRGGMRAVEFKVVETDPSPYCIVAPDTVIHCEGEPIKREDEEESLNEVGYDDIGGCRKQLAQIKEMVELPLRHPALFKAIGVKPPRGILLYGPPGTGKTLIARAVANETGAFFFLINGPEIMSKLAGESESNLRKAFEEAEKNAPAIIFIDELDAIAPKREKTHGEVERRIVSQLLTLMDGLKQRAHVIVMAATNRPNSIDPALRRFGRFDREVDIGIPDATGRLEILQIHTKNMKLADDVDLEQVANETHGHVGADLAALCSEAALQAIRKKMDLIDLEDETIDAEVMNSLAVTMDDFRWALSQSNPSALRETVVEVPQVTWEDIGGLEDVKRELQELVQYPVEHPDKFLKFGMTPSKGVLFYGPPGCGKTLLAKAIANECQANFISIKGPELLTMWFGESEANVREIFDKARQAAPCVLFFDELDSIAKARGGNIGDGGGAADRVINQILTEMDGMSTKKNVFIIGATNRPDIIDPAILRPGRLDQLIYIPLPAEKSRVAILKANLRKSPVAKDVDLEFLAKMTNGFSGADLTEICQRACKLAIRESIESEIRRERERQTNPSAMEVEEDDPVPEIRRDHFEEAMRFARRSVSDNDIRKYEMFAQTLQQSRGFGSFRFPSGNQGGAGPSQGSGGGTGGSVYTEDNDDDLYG
UniProt P55072, whole entry E470D: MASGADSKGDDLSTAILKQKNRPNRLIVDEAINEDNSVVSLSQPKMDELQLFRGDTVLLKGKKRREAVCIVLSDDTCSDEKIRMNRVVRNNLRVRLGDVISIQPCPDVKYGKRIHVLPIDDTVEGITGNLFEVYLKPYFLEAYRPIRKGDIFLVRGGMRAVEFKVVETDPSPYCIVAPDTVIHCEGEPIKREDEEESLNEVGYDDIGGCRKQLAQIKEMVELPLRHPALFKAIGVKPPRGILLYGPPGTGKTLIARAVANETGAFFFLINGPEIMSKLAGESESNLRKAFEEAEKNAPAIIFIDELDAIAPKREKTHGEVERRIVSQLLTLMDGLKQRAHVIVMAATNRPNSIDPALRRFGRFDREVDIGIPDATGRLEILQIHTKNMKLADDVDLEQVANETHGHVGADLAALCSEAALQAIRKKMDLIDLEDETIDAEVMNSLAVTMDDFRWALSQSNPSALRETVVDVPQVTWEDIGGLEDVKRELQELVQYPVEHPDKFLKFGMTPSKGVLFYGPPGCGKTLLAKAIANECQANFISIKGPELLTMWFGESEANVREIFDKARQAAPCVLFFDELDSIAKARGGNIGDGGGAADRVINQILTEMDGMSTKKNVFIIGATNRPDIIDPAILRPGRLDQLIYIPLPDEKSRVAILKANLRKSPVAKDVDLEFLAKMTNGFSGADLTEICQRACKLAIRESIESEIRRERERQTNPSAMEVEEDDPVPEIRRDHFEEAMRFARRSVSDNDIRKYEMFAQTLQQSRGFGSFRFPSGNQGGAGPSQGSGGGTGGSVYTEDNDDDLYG
UniProt P55072, whole entry T688A: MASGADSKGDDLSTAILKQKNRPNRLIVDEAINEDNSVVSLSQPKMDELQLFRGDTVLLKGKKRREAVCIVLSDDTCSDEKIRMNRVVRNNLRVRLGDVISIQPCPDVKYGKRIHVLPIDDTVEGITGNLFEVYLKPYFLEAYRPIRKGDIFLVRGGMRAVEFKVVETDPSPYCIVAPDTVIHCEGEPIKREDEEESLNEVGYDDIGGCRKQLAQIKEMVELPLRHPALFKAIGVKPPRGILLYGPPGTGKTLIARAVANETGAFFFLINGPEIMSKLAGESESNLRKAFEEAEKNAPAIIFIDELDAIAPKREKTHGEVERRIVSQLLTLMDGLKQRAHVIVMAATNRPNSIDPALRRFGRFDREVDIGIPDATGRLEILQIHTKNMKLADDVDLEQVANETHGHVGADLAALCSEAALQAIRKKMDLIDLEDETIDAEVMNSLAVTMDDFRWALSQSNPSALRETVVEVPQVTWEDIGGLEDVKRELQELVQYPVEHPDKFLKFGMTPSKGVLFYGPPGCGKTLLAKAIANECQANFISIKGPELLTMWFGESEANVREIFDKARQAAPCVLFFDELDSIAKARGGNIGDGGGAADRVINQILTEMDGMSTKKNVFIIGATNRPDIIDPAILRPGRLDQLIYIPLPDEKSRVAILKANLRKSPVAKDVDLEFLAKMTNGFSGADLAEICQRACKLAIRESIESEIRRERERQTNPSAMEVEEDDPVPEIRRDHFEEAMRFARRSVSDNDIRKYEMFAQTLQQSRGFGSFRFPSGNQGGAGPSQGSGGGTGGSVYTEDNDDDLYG

How the values were obtained:
[1] = test system: Hct116 resistant cell line clone #22 (p97 N660D); experiment: GI50 fold-change, resistant clone #22 vs parental; assay type: cell-based, human; settings: Clone #22, Hct116, resistance generated with compound 4, A1978G / N660D; 72 hrs
Experimental: (§1) Dose titration of test compounds were conducted in Hct116, DLD-1, or LoVo cell lines. In brief, cells were plated in 384-well plates and a selected candidate drug compound was added in a 10-point 2-fold serial dilution. […] Data was fit to a four-parameter sigmoidal curve to determine compound doses that result in 50% decrease in viability (GI50). Hct116 cells were plated at 50,000 cells per 15 cm dish and treated with GI50-GI90 doses of test compound for 2-4 weeks until individual colonies of cells were visible on the plate.

[2] = test system: Hct116 resistant cell line clone #1 (p97 D649N); experiment: GI50 fold-change, resistant clone #1 vs parental; assay type: cell-based, human; settings: Clone #1, Hct116, resistance generated with compound 2, G1945A / D649N; 72 hrs
Experimental: as §1

[3] = test system: Hct116 resistant cell line clone #8 (p97 N660D); experiment: GI50 fold-change, resistant clone #8 vs parental; assay type: cell-based, human; settings: Clone #8, Hct116, resistance generated with compound 3, A1978G / N660D; 72 hrs
Experimental: as §1

[4] = test system: Hct116 resistant cell line clone #207 (p97 V485D); experiment: GI50 fold-change, resistant clone #207 vs parental; assay type: cell-based, human; settings: Clone #207, Hct116, resistance generated with compound 4, T1454A / V485D; 72 hrs
Experimental: as §1

[5] = target: T1, p97 Q473P (Homo sapiens, UniProt P55072, Q473P); experiment: Biochemical ATPase assay, mutant p97 vs WT; settings: recombinant p97 with Q473P mutation
T1 construct: His-tag; made in house; host or cells: E. coli B121[DE3]; (so in the source)
Experimental: (§2) Proteins were expressed in the B121[DE3] strain of E. coli and purified using His-tag mediated nickel purification and gel filtration chromatography.
(§3) ATPase activity of p97 was measured using an ATP regenerating enzymatic system that couples the conversion of phosphoenolpyruvate (PEP) to pyruvate by pyruvate kinase with ADP conversion to ATP. Pyruvate is then converted to lactate by lactate dehydrogenase, which is coupled to the conversion of NADH to NAD^+. The loss of NADH is measured by a decrease in optical absorbance as […] allowing for real-time measurement of ATPase activity. Dose titrations of a test compound were added to the p97 ATPase assay and ATPase activity was monitored. The rate of ATPase activity was fit to four-parameter sigmoidal curve to calculate IC50 of test compound. IC50 values of test compounds for wild type p97 were compared to IC50 values of mutant proteins to identify fold-changes in the potency of test compounds for mutant p97.

[6] = target: T2, p97 A659T (Homo sapiens, UniProt P55072, A659T); experiment: Biochemical ATPase assay, mutant p97 vs WT; settings: recombinant p97 with A659T mutation
T2 construct: His-tag; made in house; host or cells: E. coli B121[DE3]; (so in the source)
Experimental: as §2, §3

[7] = target: T3, p97 G481A (Homo sapiens, UniProt P55072, G481A); experiment: Biochemical ATPase assay, mutant p97 vs WT; settings: recombinant p97 with G481A mutation
T3 construct: His-tag; made in house; host or cells: E. coli B121[DE3]; (so in the source)
Experimental: as §2, §3

[8] = target: T4, p97 D649A (Homo sapiens, UniProt P55072, D649A); experiment: Biochemical ATPase assay, mutant p97 vs WT; settings: recombinant p97 with D649A mutation
T4 construct: His-tag; made in house; host or cells: E. coli B121[DE3]; (so in the source)
Experimental: as §2, §3

[9] = target: T5, p97 E470D (Homo sapiens, UniProt P55072, E470D); experiment: Biochemical ATPase assay, mutant p97 vs WT; settings: recombinant p97 with E470D mutation
T5 construct: His-tag; made in house; host or cells: E. coli B121[DE3]; (so in the source)
Experimental: as §2, §3

[10] = test system: Hct116 resistant cell line clone #33 (p97 P472L); experiment: GI50 fold-change, resistant clone #33 vs parental; assay type: cell-based, human; settings: Clone #33, Hct116, resistance generated with compound 4, C1415T / P472L; 72 hrs
Experimental: (§4) Dose titration of test compounds were conducted in Hct116, DLD-1, or LoVo cell lines. In brief, cells were plated in 384-well plates and a selected candidate drug compound was added in a 10-point 2-fold serial dilution.

[11] = test system: Hct116 resistant cell line clone #2 (p97 V474A); experiment: GI50 fold-change, resistant clone #2 vs parental; assay type: cell-based, human; settings: Clone #2, Hct116, resistance generated with compound 2, T1421C / V474A; 72 hrs
Experimental: as §1

[12] = test system: Hct116 resistant cell line clone #47 (p97 E498D); experiment: GI50 fold-change, resistant clone #47 vs parental; assay type: cell-based, human; settings: Clone #47, Hct116, resistance generated with compound 4, G1494T / E498D; 72 hrs
Experimental: as §1

[13] = test system: Hct116 resistant cell line clone #27 (p97 T688A); experiment: GI50 fold-change, resistant clone #27 vs parental; assay type: cell-based, human; settings: Clone #27, Hct116, resistance generated with compound 4, A2062G / T688A; 72 hrs
Experimental: as §4

[14] = test system: Hct116 resistant cell line clone #29 (p97 N660K); experiment: GI50 fold-change, resistant clone #29 vs parental; assay type: cell-based, human; settings: Clone #29, Hct116, resistance generated with compound 4, C1980A / N660K; 72 hrs
Experimental: as §4

[15] = test system: Hct116 resistant cell line clone #90 (p97 Q473P); experiment: GI50 fold-change, resistant clone #90 vs parental; assay type: cell-based, human; settings: Clone #90, Hct116, resistance generated with compound 4, A1418C / Q473P; 72 hrs
Experimental: as §4

[16] = test system: Hct116 resistant cell line clone #3 (p97 G481A); settings: Clone #3, Hct116, resistance generated with compound 2, G1442C / G481A; 72 hrs
[17] = test system: Hct116 resistant cell line clone #137 (p97 T475I); experiment: GI50 fold-change, resistant clone #137 vs parental; assay type: cell-based, human; settings: Clone #137, Hct116, resistance generated with compound 4, C1424T / T475I; 72 hrs
Experimental: as §1

[18] = test system: Hct116 resistant cell line clone #7 (p97 A659T); settings: Clone #7, Hct116, resistance generated with compound 3, G1975A / A659T; 72 hrs
[19] = test system: Hct116 resistant cell line clone #31 (p97 C535Y); experiment: GI50 fold-change, resistant clone #31 vs parental; assay type: cell-based, human; settings: Clone #31, Hct116, resistance generated with compound 4, G1604A / C535Y; 72 hrs
Experimental: as §1

[20] = test system: Hct116 resistant cell line clone #5 (p97 D649A); settings: Clone #5, Hct116, resistance generated with compound 2, A1946C / D649A; 72 hrs
[21] = test system: Hct116 resistant cell line clone #11 (p97 E470D); settings: Clone #11, Hct116, resistance generated with compound 3, G1410T / E470D; 72 hrs
[22] = test system: Hct116 resistant cell line clone #34 (p97 E470D/E); experiment: GI50 fold-change, resistant clone #34 vs parental; assay type: cell-based, human; settings: Clone #34, Hct116, resistance generated with compound 4, G1410T/G / E470D/E; 72 hrs
Experimental: as §4

[23] = test system: Hct116 resistant cell line clone #180 (p97 A569T); experiment: GI50 fold-change, resistant clone #180 vs parental; assay type: cell-based, human; settings: Clone #180, Hct116, resistance generated with compound 4, G1705A / A569T; 72 hrs
Experimental: as §1

[24] = test system: DLD-1 resistant cell line clone #82 (p97 A569A/T); experiment: GI50 fold-change, resistant clone #82 vs parental; assay type: cell-based, human; settings: Clone #82, DLD-1, resistance generated with compound 4, G1705G/A / A569A/T; 72 hrs
Experimental: as §4

[25] = target: T6, p97 T688A (Homo sapiens, UniProt P55072, T688A); experiment: Biochemical ATPase assay, mutant p97 vs WT; settings: recombinant p97 with T688A mutation
T6 construct: His-tag; made in house; host or cells: E. coli B121[DE3]; (so in the source)
Experimental: as §2, §3

[26] = test system: Hct116 resistant cell line clone #117 (p97 L482I); experiment: GI50 fold-change, resistant clone #117 vs parental; assay type: cell-based, human; settings: Clone #117, Hct116, resistance generated with compound 4, C1444A / L482I; 72 hrs
Experimental: as §1

[27] = test system: Hct116 resistant cell line clone #45 (p97 F539I); experiment: GI50 fold-change, resistant clone #45 vs parental; assay type: cell-based, human; settings: Clone #45, Hct116, resistance generated with compound 4, T1615A / F539I; 72 hrs
Experimental: as §1

[28] = test system: Hct116 resistant cell line clone #139 (p97 P472S); experiment: GI50 fold-change, resistant clone #139 vs parental; assay type: cell-based, human; settings: Clone #139, Hct116, resistance generated with compound 4, C1414T / P472S; 72 hrs
Experimental: as §1

[29] = test system: Hct116 resistant cell line clone #25 (p97 P500T); experiment: GI50 fold-change, resistant clone #25 vs parental; assay type: cell-based, human; settings: Clone #25, Hct116, resistance generated with compound 4, C1498A / P500T; 72 hrs
Experimental: as §1

[30] = test system: Hct116 resistant cell line clone #42 (p97 P472A); experiment: GI50 fold-change, resistant clone #42 vs parental; assay type: cell-based, human; settings: Clone #42, Hct116, resistance generated with compound 4, C1414G / P472A; 72 hrs
Experimental: as §1

[31] = test system: Hct116 resistant cell line clone #30 (p97 F516L); experiment: GI50 fold-change, resistant clone #30 vs parental; assay type: cell-based, human; settings: Clone #30, Hct116, resistance generated with compound 4, T1546C / F516L; 72 hrs
Experimental: as §1

[32] = test system: Hct116 resistant cell line clone #6 (p97 A528T); experiment: GI50 fold-change, resistant clone #6 vs parental; assay type: cell-based, human; settings: Clone #6, Hct116, resistance generated with compound 2, G1582 / A528T; 72 hrs
Experimental: as §1

Fold Change in IC50 compared to WT Protein [5] | Fold Change in IC50 compared to WT Protein [6] | Fold Change in IC50 compared to WT Protein [7] | Fold Change in IC50 compared to WT Protein [8] | Fold Change in IC50 compared to WT Protein [9] | SMILES | Fold Change in GI50 Compared to Parental Cell Line [1] | Fold Change in GI50 Compared to Parental Cell Line [3] | Fold Change in GI50 Compared to Parental Cell Line [4] | Fold Change in GI50 Compared to Parental Cell Line [10] | Fold Change in GI50 Compared to Parental Cell Line [11] | Fold Change in GI50 Compared to Parental Cell Line [12] | Fold Change in GI50 Compared to Parental Cell Line [13] | Fold Change in GI50 Compared to Parental Cell Line [14] | Fold Change in GI50 Compared to Parental Cell Line [15] | Fold Change in GI50 Compared to Parental Cell Line [16] | Fold Change in GI50 Compared to Parental Cell Line [17] | Fold Change in GI50 Compared to Parental Cell Line [18] | Fold Change in GI50 Compared to Parental Cell Line [19] | Fold Change in GI50 Compared to Parental Cell Line [20] | Fold Change in GI50 Compared to Parental Cell Line [21] | also measured
2.5 fold | 18.2 fold | 8.2 fold | 7.0 fold | 6.4 fold | Cc1cc2c(C(N)=O)cccc2n1-c1nc2c(c(NCc3ccccc3)n1)CNCC2 [Compound 3, 1-[4-(benzylamino)-5H,6H,7H,8H-pyrido[4,3-d]pyrimidin-2-yl]-2-methyl-1H-indole-4-carboxamide] | 6.8 fold | 2.5 fold | 27.9 fold | 11.6 fold | 11.9 fold | 2.6 fold | 50.3 fold | 19.3 fold | 2.5 fold | 27.6 fold | 2.6 fold | 6.3 fold | 6.4 fold | 21.3 fold | 5.0 fold | Fold Change in GI50 Compared to Parental Cell Line [2]: 22.6 fold; Fold Change in GI50 Compared to Parental Cell Line [22]: 3.8 fold; Fold Change in GI50 Compared to Parental Cell Line [23]: 5.1 fold
1.6 fold | 2.8 fold | 1.9 fold | 2.8 fold | 3.1 fold | COc1nc2ccccc2n1-c1nc2c(c(NCc3ccccc3)n1)CCCC2 [Compound 2, N-benzyl-2-(2-methoxy-1H-1,3-benzodiazol-1-yl)-5,6,7,8-tetrahydroquinazolin-4-amine] | 3.1 fold | 1.8 fold | 7.0 fold | 5.8 fold | 5.5 fold | 1.8 fold | 1.6 fold | 3.4 fold | 1.9 fold | 5.4 fold | 1.6 fold | 3.5 fold | 3.0 fold | 7.3 fold | 4.0 fold | Fold Change in GI50 Compared to Parental Cell Line [24]: 2.8 fold; Fold Change in IC50 compared to WT Protein [25]: 8.8 fold; Fold Change in GI50 Compared to Parental Cell Line [26]: 2.6 fold; Fold Change in GI50 Compared to Parental Cell Line [27]: 3.1 fold; Fold Change in GI50 Compared to Parental Cell Line [28]: 2.8 fold; Fold Change in GI50 Compared to Parental Cell Line [29]: 1.9 fold; Fold Change in GI50 Compared to Parental Cell Line [30]: 3.6 fold; Fold Change in GI50 Compared to Parental Cell Line [22]: 3.0 fold; Fold Change in GI50 Compared to Parental Cell Line [31]: 5.4 fold; Fold Change in GI50 Compared to Parental Cell Line [32]: 5.0 fold; Fold Change in GI50 Compared to Parental Cell Line [23]: 2.7 fold
